In ChEMBL document CHEMBL1128198, “New drug developments for opportunistic infections in immunosuppressed patients: Pneumocystis carinii” (J Med Chem, 1995):

Key:
Dihydrofolate reductase [1] = target: T1, Dihydrofolate reductase (Pneumocystis carinii, UniProt P16184)
T1 sequence (P16184 whole entry): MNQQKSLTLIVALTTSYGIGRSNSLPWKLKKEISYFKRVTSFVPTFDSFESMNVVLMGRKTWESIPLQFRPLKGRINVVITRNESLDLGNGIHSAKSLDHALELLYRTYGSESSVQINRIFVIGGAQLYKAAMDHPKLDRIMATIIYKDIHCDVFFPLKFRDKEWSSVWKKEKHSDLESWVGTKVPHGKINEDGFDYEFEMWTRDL

Dihydrofolate reductase [2] = target: T1, Dihydrofolate reductase; remark: listed apart in the source

| IC50 (Dihydrofolate reductase [1]) | Ki (Dihydrofolate reductase [2]) | SMILES |
| --- | --- | --- |
| 13 nM | – | COc1cc(NCc2cnc3nc(N)nc(N)c3c2C)cc(OC)c1OC |
| – | 0.143 nM | COc1ccc(OC)c(Cc2cnc3nc(N)nc(N)c3c2C)c1 [PIRITREXIM] |
